The test has as its target human Nav1.8 (Homo sapiens (Human), UniProt Q9Y5Y9). Briefly: E-VIPR optical membrane potential assay with electrical stimulation. The class given is cell-based. Conditions: HEK cells expressing human Nav1.8. From the text:
Sodium channels are voltage-dependent proteins that can be activated by inducing membrane voltage changes by applying electric fields. […] The instrument comprises a microtiter plate handler, an optical system for exciting the coumarin dye while simultaneously recording the coumarin and oxonol emissions, a waveform generator, a current- or voltage-controlled amplifier, and a device for inserting electrodes in well. Under integrated computer control, this instrument passes user-programmed electrical stimulus protocols to cells within the wells of the microtiter plate.
24 hours before the assay on E-VIPR, HEK cells expressing human Nav1.8 were seeded in 384-well poly-lysine coated plates at 15,000-20,000 cells per well. […] Cells were grown in vented cap flasks, in 90% humidity and 5% CO2.
To make the solution added volume of 10% Pluronic F127 stock equal to volumes of CC2-DMPE+DiSBAC6(3). […]
7) Read Plate on E-VIPR. […]
Data was analyzed and reported as normalized ratios of emission intensities measured in the 460 nm and 580 nm channels. […]
Control responses were obtained by performing assays in the presence of a compound with the desired properties (positive control), such as tetracaine, and in the absence of pharmacological agents (negative control). Responses to the negative (N) and positive (P) controls were calculated as above. […]

Chains of the proteins cited; added tags and fusions are not shown.
UniProt Q9Y5Y9, whole entry: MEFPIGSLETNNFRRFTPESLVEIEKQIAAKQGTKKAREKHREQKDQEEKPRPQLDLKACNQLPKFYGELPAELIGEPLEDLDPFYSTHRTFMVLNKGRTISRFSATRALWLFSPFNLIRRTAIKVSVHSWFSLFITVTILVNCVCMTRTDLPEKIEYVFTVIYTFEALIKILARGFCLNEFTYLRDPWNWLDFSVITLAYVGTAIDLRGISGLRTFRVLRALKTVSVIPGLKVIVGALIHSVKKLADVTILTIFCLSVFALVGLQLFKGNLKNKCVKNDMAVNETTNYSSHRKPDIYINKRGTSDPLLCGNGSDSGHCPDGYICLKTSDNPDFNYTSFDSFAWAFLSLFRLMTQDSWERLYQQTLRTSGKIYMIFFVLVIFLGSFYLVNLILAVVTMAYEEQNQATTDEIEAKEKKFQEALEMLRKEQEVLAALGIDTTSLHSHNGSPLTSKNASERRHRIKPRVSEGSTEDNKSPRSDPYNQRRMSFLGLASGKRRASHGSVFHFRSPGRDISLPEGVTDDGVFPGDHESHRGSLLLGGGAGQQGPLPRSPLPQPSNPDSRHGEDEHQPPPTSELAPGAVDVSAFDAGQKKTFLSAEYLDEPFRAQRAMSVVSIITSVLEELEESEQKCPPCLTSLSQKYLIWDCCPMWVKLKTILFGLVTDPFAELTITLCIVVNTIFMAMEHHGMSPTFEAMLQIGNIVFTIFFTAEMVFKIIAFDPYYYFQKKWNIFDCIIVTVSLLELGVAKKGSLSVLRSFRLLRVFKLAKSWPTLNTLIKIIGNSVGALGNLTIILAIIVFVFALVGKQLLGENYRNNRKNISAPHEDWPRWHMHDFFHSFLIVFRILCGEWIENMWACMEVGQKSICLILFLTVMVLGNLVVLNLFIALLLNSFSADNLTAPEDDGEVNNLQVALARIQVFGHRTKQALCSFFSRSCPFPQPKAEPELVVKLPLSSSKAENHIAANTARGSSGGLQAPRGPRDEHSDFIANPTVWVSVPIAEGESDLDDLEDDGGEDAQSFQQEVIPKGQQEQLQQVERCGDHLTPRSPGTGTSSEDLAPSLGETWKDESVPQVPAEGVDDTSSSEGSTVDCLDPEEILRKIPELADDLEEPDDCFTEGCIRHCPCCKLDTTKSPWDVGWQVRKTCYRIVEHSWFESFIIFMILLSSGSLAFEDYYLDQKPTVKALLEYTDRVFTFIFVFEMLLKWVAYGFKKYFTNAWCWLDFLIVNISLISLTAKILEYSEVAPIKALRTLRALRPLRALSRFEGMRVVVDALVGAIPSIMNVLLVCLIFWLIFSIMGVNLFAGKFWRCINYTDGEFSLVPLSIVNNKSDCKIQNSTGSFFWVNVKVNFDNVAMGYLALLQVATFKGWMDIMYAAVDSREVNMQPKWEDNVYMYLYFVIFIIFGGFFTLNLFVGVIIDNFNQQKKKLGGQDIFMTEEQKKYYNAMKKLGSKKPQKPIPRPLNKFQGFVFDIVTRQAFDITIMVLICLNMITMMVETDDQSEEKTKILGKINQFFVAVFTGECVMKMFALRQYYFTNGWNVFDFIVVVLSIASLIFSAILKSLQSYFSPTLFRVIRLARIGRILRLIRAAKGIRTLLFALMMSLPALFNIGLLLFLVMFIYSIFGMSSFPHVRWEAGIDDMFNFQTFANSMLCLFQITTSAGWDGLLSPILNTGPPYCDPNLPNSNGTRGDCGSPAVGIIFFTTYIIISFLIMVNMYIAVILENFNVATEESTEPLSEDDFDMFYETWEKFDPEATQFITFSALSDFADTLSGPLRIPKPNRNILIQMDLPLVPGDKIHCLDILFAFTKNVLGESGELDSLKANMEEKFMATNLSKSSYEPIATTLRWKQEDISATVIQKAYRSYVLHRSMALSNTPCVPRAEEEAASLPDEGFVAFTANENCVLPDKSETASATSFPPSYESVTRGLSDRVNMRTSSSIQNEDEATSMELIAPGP

In general, IC50 refers to the concentration needed to halve the response being measured.

For “2-(4-fluoro-2-methylphenoxy)-N-(6-oxo-1,6-dihydropyridin-3-yl)-5-(trifluoromethyl)benzamide [Compound 106]”, the IC50 came to 99 nM.

Source of the values: patent US9758483B2, “Pyridone amides as modulators of sodium channels” (VERTEX PHARMACEUTICALS INCORPORATED, priority 2013, dated 2017).
